Experimental data published in patent US20140178315A1, “Topical Compositions Comprising Ionic Fluids” (Arch Chemicals, Inc., priority 2012, published 2014).

Conditions: 1 g salt added to 9 g anhydrous betaine glycolate ionic fluid; heated at 105° C. for 2 hours; remained a viscous fluid after cooling to room temperature

## betaine salicylate
  Solubility of betaine salicylate in betaine glycolate ionic fluid (appearance of the mixture): formed a clear fluid
